For four compounds, Ka and Ke results are on record in ChEMBL document CHEMBL5241084, “Non-carbohydrate strategies to inhibit lectin proteins with special emphasis on galectins” (Eur J Med Chem, 2021).

The chains behind the UniProt entries cited, without tags or fusion partners.
UniProt P09382, whole entry: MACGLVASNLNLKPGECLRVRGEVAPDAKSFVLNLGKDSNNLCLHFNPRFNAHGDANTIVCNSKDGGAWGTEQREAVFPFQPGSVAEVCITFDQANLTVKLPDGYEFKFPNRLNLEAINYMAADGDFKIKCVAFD

Test [1] concerns the target T1, Galectin-1 (Homo sapiens, UniProt P09382). The test can be described thus: Binding affinity to Gal-1 (unknown origin) by fluorescence spectroscopy.
Test [2] has as its target T1, Galectin-1.
The target of test [3] is T1, Galectin-1. This is another data set of the same source.

Structures are written as SMILES.

Consider `CCOC(=O)C1CCN(Cc2cc(=O)oc3cc(OCc4ccc([N+](=O)[O-])cc4)ccc23)CC1`, for which the Ka on Galectin-1 [1] was 1.3 10^4/M.
Regarding `O=C(Nc1ccc(O)cc1)c1ccc(-c2nc3cc(Cl)ccc3n2Cc2ccccc2)cc1`, the Ke at Galectin-1 [2] is 5.76 10^-4M. Also, the Ka on Galectin-1 [1] was 1.2 10^4/M.
In turn, `Oc1cccc(-n2cc(COc3ccc(-c4nc5cc(Cl)ccc5n4Cc4ccccc4)cc3)nn2)c1` gave a Ke on Galectin-1 [2] of 2.9 mM. The Ka on Galectin-1 [1] was 9.5 10^3/M.
For `CC1CN(Cc2cc(=O)oc3cc(OCc4cn(Cc5ccc(Cl)cc5Cl)nn4)ccc23)CC(C)O1` (stereo not drawn), the Ka was 70.4 M⁻¹ s⁻¹ at Galectin-1 [3] and 3 10^5/M at Galectin-1 [1]. This compound also registered a Ke at Galectin-1 [2] of 6.8 mM.
